Literature values in publication PMC5947850 (ACS infectious diseases, 2017).

Molecular target: T1, P. falciparum cytochrome bc1 (Plasmodium falciparum, UniProt Q02768)
T1 sequence (Q02768 1-376): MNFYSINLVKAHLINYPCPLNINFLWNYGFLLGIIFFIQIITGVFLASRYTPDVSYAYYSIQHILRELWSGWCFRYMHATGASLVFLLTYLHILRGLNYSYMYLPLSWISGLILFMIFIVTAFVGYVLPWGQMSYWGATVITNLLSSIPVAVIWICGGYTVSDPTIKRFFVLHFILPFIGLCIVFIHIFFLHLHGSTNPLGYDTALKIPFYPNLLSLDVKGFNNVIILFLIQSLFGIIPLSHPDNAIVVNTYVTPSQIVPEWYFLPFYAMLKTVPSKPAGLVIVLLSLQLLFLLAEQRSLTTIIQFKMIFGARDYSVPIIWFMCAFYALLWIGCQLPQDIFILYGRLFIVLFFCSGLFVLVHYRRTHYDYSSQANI
Conditions: read-out: P. falciparum cytochrome bc1 EC50; ref Nilsen, et al. 14; cited from earlier work

In the case of `O=C1C(O)=C([C@H]2CC[C@H](c3ccc(Cl)cc3)CC2)C(=O)c2ccccc21` [Atovaquone, reference compound], the EC50 is given as 2 nM.
